{"source": "ChEMBL document CHEMBL1800025", "about": "(J Med Chem, 2011)", "system": "Cyclin-dependent kinase 5/p25 (Homo sapiens)", "assay": "Inhibition of human recombinant CDK5/p25 at 10 uM", "note": "Calls of active or inactive are those of the source. The calls are words filed in the database; no cut-off is given here."}
{"smiles": "CCCNC1=N/C(=C\\c2ccc3c(c2)OCO3)C(=O)N1c1ccccc1", "values": [{"measurement": "inhibition", "value": "inactive"}]}
{"smiles": "CCCNC1=N/C(=C\\c2ccc3c(c2)OCO3)C(=O)N1CCC", "values": [{"measurement": "inhibition", "value": "inactive"}]}
